We go through 37 compounds from PubChem BioAssay AID1224863 (Southern Research Institute, 2016).

Protein sequences, listed by entry. Tags and fused reporters are not part of them. Chains listed by the source or under a name are the forms on record and can include a tag or linker.
UniProt P13569, with tags, fused parts or gaps F508del: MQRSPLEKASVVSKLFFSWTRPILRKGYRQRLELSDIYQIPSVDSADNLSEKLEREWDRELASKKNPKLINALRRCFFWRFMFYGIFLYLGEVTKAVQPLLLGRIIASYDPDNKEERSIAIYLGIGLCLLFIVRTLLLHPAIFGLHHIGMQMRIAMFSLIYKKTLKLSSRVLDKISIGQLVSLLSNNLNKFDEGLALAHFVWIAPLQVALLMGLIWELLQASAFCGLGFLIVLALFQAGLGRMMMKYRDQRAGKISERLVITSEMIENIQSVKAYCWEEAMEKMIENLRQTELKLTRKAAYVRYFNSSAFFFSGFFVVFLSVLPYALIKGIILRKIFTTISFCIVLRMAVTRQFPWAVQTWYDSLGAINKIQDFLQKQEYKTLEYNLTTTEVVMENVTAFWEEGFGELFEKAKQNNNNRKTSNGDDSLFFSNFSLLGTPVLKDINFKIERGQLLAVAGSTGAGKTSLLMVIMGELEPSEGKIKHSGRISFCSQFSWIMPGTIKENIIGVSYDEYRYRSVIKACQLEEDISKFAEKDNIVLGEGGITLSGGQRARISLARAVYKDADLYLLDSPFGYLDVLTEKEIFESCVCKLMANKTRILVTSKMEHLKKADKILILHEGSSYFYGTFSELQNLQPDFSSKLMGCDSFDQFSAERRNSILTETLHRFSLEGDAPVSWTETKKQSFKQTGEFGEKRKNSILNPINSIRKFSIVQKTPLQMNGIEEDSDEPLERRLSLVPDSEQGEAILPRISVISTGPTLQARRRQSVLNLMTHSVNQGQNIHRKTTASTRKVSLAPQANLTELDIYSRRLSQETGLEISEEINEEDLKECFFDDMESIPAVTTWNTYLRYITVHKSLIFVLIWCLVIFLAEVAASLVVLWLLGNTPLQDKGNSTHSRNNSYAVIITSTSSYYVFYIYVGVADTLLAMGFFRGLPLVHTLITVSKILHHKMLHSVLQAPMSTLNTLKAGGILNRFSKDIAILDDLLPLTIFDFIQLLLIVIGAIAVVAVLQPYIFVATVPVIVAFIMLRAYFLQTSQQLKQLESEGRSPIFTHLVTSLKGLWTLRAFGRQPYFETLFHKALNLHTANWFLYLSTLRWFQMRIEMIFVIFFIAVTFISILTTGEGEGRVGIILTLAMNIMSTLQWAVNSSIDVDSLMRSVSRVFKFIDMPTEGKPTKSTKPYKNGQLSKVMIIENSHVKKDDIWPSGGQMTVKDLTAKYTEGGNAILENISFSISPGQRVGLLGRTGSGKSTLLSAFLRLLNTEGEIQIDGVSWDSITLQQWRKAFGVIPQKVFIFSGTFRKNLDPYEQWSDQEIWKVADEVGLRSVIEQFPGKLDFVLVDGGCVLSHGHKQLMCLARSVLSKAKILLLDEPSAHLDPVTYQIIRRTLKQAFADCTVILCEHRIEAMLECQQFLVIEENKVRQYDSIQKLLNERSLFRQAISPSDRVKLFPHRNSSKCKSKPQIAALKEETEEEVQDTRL

The nature of test [1]: total CFTR protein upregulators, primary screen, cell-based, HeLa F508del-CFTR, immunofluorescence, viability (AID 1224863).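 As to fold increase: total CFTR protein by anti-CFTR immunofluorescence in fixed cells.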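 As to max fold increase: total CFTR protein by anti-CFTR immunofluorescence in fixed cells.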 Conditions: 24 h, stronger effect = higher value; min viability: measured here: HeLa viability, alamarBlue, dose 20, library dosed in µg/mL unless noted; viability: measured here: primary viability 10 ug/mL, library dosed in µg/mL unless noted. In general terms: Resazurin is reduced to fluorescent resorufin, in cell work by metabolically active cells.

Test [2] concerns the target Cystic fibrosis transmembrane conductance regulator (Homo sapiens) (UniProt P13569). The description is as above. Conditions: 24 h; fold increase: measured here: primary screen 10 ug/mL, library dosed in µg/mL, stronger effect = higher value unless noted; max fold increase: dose 10, library dosed in µg/mL, stronger effect = higher value unless noted; outcome: library dosed in µg/mL unless noted.

Hit rate of the full screen: of about 10,000 compounds, about 15 (0.1%) were called active.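 The calls were made as follows: active = highest signal at least 8 times the median of untreated cell-only control wells at some dose; inactive = the rest.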 Only a sample is shown.

By viability is commonly meant a read-out of living cells in per cent, often relative to untreated cells.

For `Cc1cc(CN2CCN(CCS(=O)c3ccccc3)CC2)on1` (stereo not drawn), the viability in test [1] was 90%. Further, in test [2], the fold increase was found to be 1.09 and the call was inactive.
In the case of `C=CCn1c(-c2cccnc2)nn(CN2CCc3ccccc3C2)c1=S`, in test [1], the viability was 111%. For the same compound, in test [2], the fold increase worked out at 1.12 and the compound was called inactive.
The matching figures for `CN1N=C(C(=O)Nc2ccc3c(c2)OC2(CCCC2)O3)CCC1=O`: 92%, 0.97 and “inactive”.
For `Cc1cc(C)n2nc(SCC(=O)c3ccc(Br)cc3)nc2n1`, in that order: 76%, 0.93 and “inactive”.
For `CC1CCc2c(sc3nc(-c4cccnc4)nc(N4CCNC(=O)CC4)c23)C1` (stereo not drawn), in that order: 84%, 0.94 and “inactive”.
On to `COc1ccc(C23CC4CC(CC(C(=O)OC5CCOC5=O)(C4)C2)C3)cc1` (stereo not drawn), for which the viability in test [1] came to 108%. In test [2], the fold increase was found to be 1.12 and the call was inactive.
For `Cc1ccc(-c2nc(-c3ccc(C(C)(C)C)cc3)c(C)s2)cc1`, in that order: 96%, 1.12 and “inactive”.
The matching figures for `N#CC1(c2nc3ccccc3s2)Cc2cc([N+](=O)[O-])ccc2N2CCCCC21` (stereo not drawn): 88%, 1.17 and “inactive”.
The matching figures for `CN1CCN(S(=O)(=O)c2ccc(Sc3ccc(Br)cc3)nc2)CC1`: 79%, 0.92 and “inactive”.
For `CCCNC(=O)C(C)NC(=O)Cc1c(C)nc2nc(N)nn2c1C` (stereo not drawn), the viability in test [1] was found to be 99%. Besides, in test [2], the fold increase was found to be 1.14 and the compound was called inactive.
Turning to `Cc1nn2c(nc(NC3CCCN(C)C3)c3ccccc32)c1Cl` (stereo not drawn), in test [1], the min viability was 70.3% [measured here: HeLa viability, alamarBlue, dose 10, library dosed in µg/mL] and the viability was found to be 72%. In addition, in test [2], the fold increase stood at 2.03 and the max fold increase is 1.32 [dose 0.039, library dosed in µg/mL, stronger effect = higher value] (inactive).
On to `O=c1oc2ccccc2n1CN1CCCC(O)C1` (stereo not drawn), for which the viability in test [1] amounted to 85%. In test [2], the fold increase amounted to 0.95 and the outcome was inactive.
The matching figures for `O=[N+]([O-])c1cc2c(c(CSc3nnnn3-c3ccc(Cl)cc3)c1)OCOC2`: 91%, 1.01 and “inactive”.
Turning to `CN(Cc1nc2ccsc2c(=O)[nH]1)C(=O)CCc1nnc(-c2ccsc2)o1`, the viability in test [1] stood at 87%. In test [2], the fold increase amounted to 1.17 and the call was inactive.
For `N#Cc1c(/C=C/c2ccc3c(c2)OCCO3)cc(-c2cccc(Cl)c2)n2c1nc1ccccc12`, in that order: 99%, 1.16 and “inactive”.
Take `CC(C)CN1CC(C(=O)Nc2ccc3c(c2)OC2(CCCC2)O3)CC1=O` (stereo not drawn): in test [1], the viability was determined as 83%. Further, in test [2], the fold increase was 1.08 and the call was inactive.
The matching figures for `O=C(OCc1cc(Cl)c2c(c1)OCO2)c1ccco1`: 90%, 0.99 and “inactive”.
On to `O=C(Cn1ncc(Cl)c(Cl)c1=O)N1CCNC1=O`, for which, in test [1], the min viability turned out to be 70% and the viability is 78%. In addition, in test [2], the fold increase worked out at 1.56 and the max fold increase was 3.11 (inactive).
Regarding `CCOCCCNc1sc(S(C)(=O)=O)nc1S(=O)(=O)c1ccc(C)cc1`, in test [1], the viability is 93%. Further, in test [2], the fold increase was 1.05 and the compound was classed as inactive.
The matching figures for `CC(C#N)Sc1nnnn1-c1ccc(Cl)cc1` (stereo not drawn): 98%, 0.96 and “inactive”.
For `C=CCOc1ccccc1/C=C(/C#N)c1nc(N)nc(N(C)C)n1`, in that order: 85%, 1.09 and “inactive”.
The matching figures for `N#Cc1ccc(/C=C2\CSc3ccccc3C2=O)cc1`: 56%, 0.79 and “inactive”.
As for `CC1(c2ccc3c(c2)OCO3)NC(=O)N(Cc2ccc3c(c2)OCO3)C1=O` (stereo not drawn), the viability in test [1] stood at 100%. Also, in test [2], the fold increase amounted to 0.99 and the call was inactive.
The matching figures for `CS(=O)(=O)NC1CCN(CC(=O)NC2CC2)CC1`: 105%, 1.17 and “inactive”.
The matching figures for `S=c1n(CN(C2CCCC2)C2CC2)nc(N2CCOCC2)n1-c1ccccc1`: 102%, 1.03 and “inactive”.
The matching figures for `CC(C)N1C(=O)c2ccc(C(=O)Nc3ccc(I)cc3)cc2S1(=O)=O`: 92%, 0.96 and “inactive”.
With `Cc1cnc(NC(=O)COCC2CC2)s1`, the viability in test [1] worked out at 100%. In test [2], the fold increase was 1.01 and the compound was called inactive.
For `CCN1C(=O)c2ccccc2N2C(=O)CCC12C(=O)NC(C)c1ccc(F)cc1` (stereo not drawn), in that order: 97%, 0.96 and “inactive”.
Turning to `CCC(C)(C)NCC(=O)N1c2ccccc2NC(=O)C1(C)C`, in test [1], the viability turned out to be 93%. Besides, in test [2], the fold increase was 1.11 and the compound was called inactive.
For `NC(=O)C1CCCN1S(=O)(=O)c1ccc(Cl)s1` (stereo not drawn), in that order: 97%, 1.06 and “inactive”.
The matching figures for `Cn1ncc2c(NCC(=O)NC(C)(C)C)ncnc21`: 91%, 1.05 and “inactive”.
The matching figures for `CS(=O)(=O)c1ccc(Oc2ccc3c(c2)OCCO3)c([N+](=O)[O-])c1`: 92%, 0.98 and “inactive”.
`CCn1c(SCCS(=O)(=O)c2ccc(Br)cc2)nc2ccccc21`: the viability in test [1] is 74%. In addition, in test [2], the fold increase was 0.65 and the result was inactive.
For `CN1CCN(C(=O)C2CCN(C(=O)OCC(F)(F)F)CC2)c2nc3ccccc3nc21`, in that order: 85%, 0.99 and “inactive”.
For `CN(C)S(=O)(=O)N1CCN(Cc2ccccc2CN2CCN(S(=O)(=O)N(C)C)CC2)CC1`, in that order: 94%, 0.9 and “inactive”.
As for `CS(=O)(=O)NC1CCCN(c2nc(-c3ccccc3)nc3ccccc23)C1` (stereo not drawn), in test [1], the viability came out at 91%. In test [2], the fold increase was determined as 0.95 and the outcome was inactive.
As to `COc1cc(OC)cc(-c2nnc(SCCc3ccccc3)o2)c1`, the viability in test [1] was determined as 105%. Further, in test [2], the fold increase came out at 0.99 and the call was inactive.
